# Source: patent US8841342B2, “Carrier” (Vital Health Sciences Pty. Ltd., priority 2002, dated 2014)
# Test: Acute transdermal penetration of 3H-estradiol and 3H-estradiol phosphate in the hairless rat
# Assay type: in vivo, female albino hairless rats
compound,measurement,setting,value
"C[C@]12CC[C@@H]3c4ccc(O)cc4CC[C@H]3[C@@H]1CC[C@@H]2OP(=O)(O)O [EP, estradiol 3:phosphate]",absorption of tritiated compound 24 hours after transdermal application (FIG. 3),5 μg in carrier cream of Example 1,more readily absorbed in comparison to E
same,amount remaining in the skin 24 hours after application,analysis of individual skin layers,minimal E or EP remained in the skin
